Patent publication US7345070B2, “Peroxisome proliferator activated receptor agonists” (Eli Lilly and Company, priority 2000, dated 2008)

System: huPPARα
Experiment: Cotransfection assay in CV-1 cells, huPPARα
Conditions: GAL4 chimeric system, relative to PPARα agonist reference molecule

Question: How did the “huPPARα CTF Efficacy” value turn out when `Cc1oc(-c2cccs2)nc1CCOc1ccc(C[C@](C)(Oc2ccccc2)C(=O)O)cc1` [Example 6, (S)-2-Methyl-3-{4-[2-(5-methyl-2-thiophen-2-yl-oxazol-4-yl)-ethoxy]-phenyl}-2-phenoxypropionic acid] was run?
Answer: Its value is 72%.

Question: With `Cc1oc(C2CCCCC2)nc1CCOc1ccc(CC(C)(Oc2ccccc2)C(=O)O)cc1` (stereo not shown) [Example 7, 2-Methyl-3-(4-{2-[5-methyl-2-cyclohexyl-oxazol-4-yl]-ethoxy}-phenyl)-2-phenoxypropionic acid] as the compound, how does the “huPPARα CTF Efficacy” value read?
Answer: Its value is 82%.

Question: For `Cc1oc(-c2ccccc2)nc1CCOc1ccc(C[C@](C)(Oc2ccccc2)C(=O)O)cc1` [Example 3, (S)-3-{4-[2-(2-Phenyl-5-methyl-oxazol-4-yl)-ethoxy]-phenyl}-2-methyl-2-phenoxy-propionic acid], which “huPPARα CTF Efficacy” value is on record?
Answer: The value was 70%.

Question: Which “huPPARα CTF Efficacy” value does the source give for `Cc1oc(-c2ccccc2)nc1CCOc1ccc(CC(C)(Oc2ccccc2)C(=O)O)cc1` (racemic) [Example 1, rac-3-{4-[2-(2-Phenyl-5-methyl-oxazol-4-yl)-ethoxy]-phenyl}-2-methyl-2-phenoxy-propionic acid] here?
Answer: Its value is 70%.

Question: Which “huPPARα CTF Efficacy” value does the source give for `Cc1oc(-c2ccccc2)nc1CCOc1ccc(C[C@@](C)(Oc2ccccc2)C(=O)O)cc1` [Example 2, (R)-3-{4-[2-(2-Phenyl-5-methyl-oxazol-4-yl)-ethoxy]-phenyl}-2-methyl-2-phenoxy-propionic acid] here?
Answer: Its value is 59%.

Question: For `Cc1oc(-c2cccs2)nc1CCOc1ccc(CC(C)(Oc2ccccc2)C(=O)O)cc1` (racemic) [Example 4, rac-2-Methyl-3-{4-[2-(5-methyl-2-thiophen-2-yl-oxazol-4-yl)-ethoxy]-phenyl}-2-phenoxypropionic acid], which “huPPARα CTF Efficacy” value is on record?
Answer: The value was 80%.

Question: For `Cc1oc(-c2cccs2)nc1CCOc1ccc(C[C@@](C)(Oc2ccccc2)C(=O)O)cc1` [Example 5, (R)-2-Methyl-3-{4-[2-(5-methyl-2-thiophen-2-yl-oxazol-4-yl)-ethoxy]-phenyl}-2-phenoxypropionic acid], which “huPPARα CTF Efficacy” value is on record?
Answer: Its value is 65%.
